This note sets out measurements from paper PMC2935846 (Journal of the American Chemical Society, 2009).

Structures are written as SMILES.

Series [1] has as its system HEK293T and NIH3T3 cells. The experiment in a line: MTT cell viability assay. The class given is cell-based, human and mouse. The note with it: 5 or 15 μM, 72 hours, 5 × 10^5 cells/mL. On the technique in general: Formazan colour is commonly taken as a measure of viable cells.
Series [2] relates to HEK293T and NIH3T3 cells. The experiment in a line: SYTOX Green uptake in mammalian cells. The class given is cell-based, human and mouse. Particulars: 5 μM, 5 × 10^5 cells/mL in DPBS.

Turning to `CC[C@H](C)[C@H](NC(=O)CN)C(=O)NCC(=O)N[C@@H](C)C(=O)N[C@H](C(=O)N[C@@H](CC(C)C)C(=O)N[C@@H](CCCCN)C(=O)N[C@H](C(=O)N[C@@H](CC(C)C)C(=O)N[C@H](C(=O)N[C@H](C(=O)NCC(=O)N[C@@H](CC(C)C)C(=O)N1CCC[C@H]1C(=O)N[C@@H](C)C(=O)N[C@@H](CC(C)C)C(=O)N[C@H](C(=O)N[C@@H](CO)C(=O)N[C@@H](Cc1c[nH]c2ccccc12)C(=O)N[C@H](C(=O)N[C@@H](CCCCN)C(=O)N[C@@H](CCCNC(=N)N)C(=O)N[C@@H](CCCCN)C(=O)N[C@@H](CCCNC(=N)N)C(=O)N[C@@H](CCC(N)=O)C(=O)N[C@@H](CCC(N)=O)C(N)=O)[C@@H](C)CC)[C@@H](C)CC)[C@@H](C)O)[C@@H](C)O)C(C)C)C(C)C` [Melittin], the “lethality (MTT cell viability)” value with HEK293T and NIH3T3 cells [1] stood at 100%. The “time to maximum SYTOX Green dye uptake by mammalian cells” value with HEK293T and NIH3T3 cells [2] is listed as “less than 10 minutes”.
